US20210040062A1, “AZOLE-SUBSTITUTED PYRIDINE COMPOUND” (TAISHO PHARMACEUTICAL CO., LTD., priority 2016, published 2021)

By UniProt entry, the sequences of proteins in these tests, tags left out. Residues count along the entry.
UniProt P78329, 5-520 limits assumed: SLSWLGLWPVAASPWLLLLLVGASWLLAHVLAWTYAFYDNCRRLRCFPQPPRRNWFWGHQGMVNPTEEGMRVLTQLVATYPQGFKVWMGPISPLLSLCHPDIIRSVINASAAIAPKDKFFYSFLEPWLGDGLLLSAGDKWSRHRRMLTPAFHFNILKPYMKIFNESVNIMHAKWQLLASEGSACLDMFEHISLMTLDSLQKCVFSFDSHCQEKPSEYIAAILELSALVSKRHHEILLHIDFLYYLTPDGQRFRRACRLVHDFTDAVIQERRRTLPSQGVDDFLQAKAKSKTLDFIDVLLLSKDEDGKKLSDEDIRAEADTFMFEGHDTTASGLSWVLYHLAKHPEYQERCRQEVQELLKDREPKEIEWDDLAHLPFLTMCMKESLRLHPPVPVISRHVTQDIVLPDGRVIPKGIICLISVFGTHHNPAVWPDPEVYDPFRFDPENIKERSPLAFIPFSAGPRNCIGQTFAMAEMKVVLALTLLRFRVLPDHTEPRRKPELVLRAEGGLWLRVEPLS
UniProt Q02928, 5-519 limits assumed: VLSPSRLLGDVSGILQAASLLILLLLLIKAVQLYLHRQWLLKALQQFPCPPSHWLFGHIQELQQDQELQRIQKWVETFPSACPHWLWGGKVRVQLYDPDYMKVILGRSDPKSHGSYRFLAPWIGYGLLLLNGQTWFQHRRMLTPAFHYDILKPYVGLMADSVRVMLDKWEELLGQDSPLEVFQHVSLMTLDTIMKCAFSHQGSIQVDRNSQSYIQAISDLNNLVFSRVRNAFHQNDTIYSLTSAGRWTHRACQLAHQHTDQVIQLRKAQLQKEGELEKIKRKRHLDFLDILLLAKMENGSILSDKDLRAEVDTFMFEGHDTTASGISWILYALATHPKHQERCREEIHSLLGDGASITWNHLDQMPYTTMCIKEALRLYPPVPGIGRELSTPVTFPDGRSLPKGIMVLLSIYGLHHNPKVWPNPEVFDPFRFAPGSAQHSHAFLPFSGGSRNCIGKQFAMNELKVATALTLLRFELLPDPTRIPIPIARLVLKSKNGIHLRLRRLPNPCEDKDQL

Assays:
human CYP4F2 = human CYP4F2 (Homo sapiens, UniProt P78329); assay: CYP4F2 inhibition test (Test Example 1); settings: read-out: IC50 value Human CYP4F2; Escherichia coli membrane fraction expressing human CYP4F2, 2.5 μM luciferine derivative, room temperature 60 minutes, luminescence
human CYP4A11 = human CYP4A11 (Homo sapiens, UniProt Q02928); assay: CYP4A11 inhibition test (Test Example 1); settings: read-out: IC50 value Human CYP4A11; Escherichia coli membrane fraction expressing human CYP4A11, 60 μM luciferine derivative, room temperature 60 minutes, luminescence

IC50 (human CYP4F2): 32 nM | IC50 (human CYP4A11): 19 nM
Compound: CN(C)S(=O)(=O)N1CCC[C@H](COc2cnc(-c3ccn[nH]3)c(F)c2)C1
